Values quoted from earlier work, collected in patent US8076288B2 (priority 2004, dated 2011).

Sequences of proteins named here, by UniProt entry; tags and fusion partners are left off.
UniProt P32238, whole entry: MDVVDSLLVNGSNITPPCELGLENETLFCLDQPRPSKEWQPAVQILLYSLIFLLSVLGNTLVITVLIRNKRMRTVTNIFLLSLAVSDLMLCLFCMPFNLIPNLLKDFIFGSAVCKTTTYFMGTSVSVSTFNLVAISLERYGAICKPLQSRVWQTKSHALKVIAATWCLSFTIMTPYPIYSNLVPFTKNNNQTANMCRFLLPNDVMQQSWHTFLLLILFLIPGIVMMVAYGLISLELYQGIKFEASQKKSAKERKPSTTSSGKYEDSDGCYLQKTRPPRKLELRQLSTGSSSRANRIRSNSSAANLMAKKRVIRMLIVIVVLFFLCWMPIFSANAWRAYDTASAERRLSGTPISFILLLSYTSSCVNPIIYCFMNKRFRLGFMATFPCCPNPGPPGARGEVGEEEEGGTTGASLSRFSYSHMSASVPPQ

Target: pancreatic CCK receptor (Homo sapiens, UniProt P32238)
Details: cited from earlier work

Substance: DY(SO3) MGWMDF-NH2 [CCK-8]
- potency in displacing binding relative to unsulfated CCK-8 or CCK-4: 1000-5000
